Reference: US20250176553A1, “SOLUTION FOR […] AND METHOD OF PRODUCING THEREOF” (OCT, Inc., priority 2022, published 2025)
Several values for one entry are separate records, joined by “and”; a condition that tells them apart may be missing. Identical values can stand only once. Like-named read-outs stand apart in the source and are kept apart here.

Key:
[1] = test system: Streptococcus mutans biofilms; details: average of samples 1-6, 590 nm
Excerpt: (§1) FIGS. 3 to 6 show the experimental results in which Streptococcus mutans strains are actually used. Streptococcus mutans is a facultative anaerobe and a gram-positive streptococcus. It produces insoluble, sticky glucans that stick to tooth surfaces. It is one of the bacteria that mainly cause dental caries. THB (TODD-HEWITT BROTH) supplemented with 2% (w/v) sucrose was used as the medium. Sucrose is a sugar composed of the monosaccharides glucose and fructose with an α-1,2-glycosidic linkage and one of the disaccharides. THB manufactured by Becton, Dickinson and Company was used. For sucrose, “CASRN” manufactured by FUJIFILM Wako Pure Chemical Corporation was used. The plate used for culture was a Thermo Scientific Nunclon Delta Surface 96 well. The incubator used was a Panasonic multi-gas incubator MCO-5MUV-PJ. Culturing was conducted at 37° C. under an atmosphere of 5% CO2 gas, 5% O2 gas and 90% N2 gas.
(§2) Devices and the like used to measure residual biofilms are described below. For staining, 0.1% Crystal Violet from FUJIFILM Wako Pure Chemical Corporation was used. It was dissolved in distilled water to 0.1% (w/v).
(§3) Life Technologies EVOS XL Core was used as the microscope for photography. […] Co., Ltd. was used as the absorption spectrometer. The data processing software was “SF6” and the absorbance wavelength was 590 nm.
Streptococcus mutans was diluted in 2% sucrose-containing THB and 10 inoculated samples of 100 μL each were plated onto cell culture plates (Thermo Scientific Nunclon Delta Surface 96well). […] No test solution was added to one of the 10 inoculated samples.
The samples were then cultured in a multi-gas incubator for 24 hours to allow biofilms to form on the bottom of each plate. After culturing, the plates were washed with distilled water and stained with 0.1% Crystal Violet solution for 10 minutes. After staining, the plates were washed again with distilled water, dried and then observed and photographed with a bright field inverted microscope.
Crystal Violet was then extracted with 100 μL of 99.5% ethanol (FUJIFILM Wako Pure Chemical Corporation), and the absorbance was measured at a wavelength of 590 nm using an absorption spectrometer grating microplate reader.

[2] = test system: Streptococcus mutans biofilms; details: for Absorbance: individual samples 1-6, medium replaced after biofilm formation, further 24 hours
Excerpt: as §1, §2, §3
Streptococcus mutans was diluted in 2% sucrose-containing THB and 10 inoculated samples of 100 μL each were plated onto cell culture plates (Thermo Scientific Nunclon Delta Surface 96well). The samples were then cultured in a multi-gas incubator for 24 hours to allow biofilms to form on the bottom of each plate.
The media were removed and the plates were washed with distilled water 24 hours after the start of cultivation. […] The samples were further cultured in a multi-gas incubator for 24 hours. After culturing, the plates were washed with distilled water and stained with 0.1% Crystal Violet solution for 10 minutes. After staining, the plates were washed again with distilled water, dried and then observed and photographed using a bright field inverted microscope.

## [2H]OS(=O)(=O)O[2H] [deuterated sulfuric acid (D2SO4)]
[1]; pH 2.3
  Absorbance, Average value: 0.785
[1]; pH 2.7
  Absorbance, Average value: 0.794
[1]; pH 3.0
  Absorbance, Average value: 0.787
[1]; pH 3.3
  Absorbance, Average value: 0.827
[1]; pH 3.7
  Absorbance, Average value: 0.830
[1]; pH 4.0
  Absorbance, Average value: 0.793
[2]; pH 0.5
  Absorbance: 0.744
[2]; pH 0.8
  Absorbance: 0.752 and 0.795 and 0.782
[2]; pH 1.2, average of samples 1-6
  Absorbance, Average value: 0.783
[2]; pH 1.2
  Absorbance: 0.836 and 0.771
